Assay results reported in US20020031799A1.

The chains behind the UniProt entries cited, without tags or fusion partners. Where a name states a change or a piece, a line headed by the entry shows the natural chain unless it says otherwise.
UniProt P00451: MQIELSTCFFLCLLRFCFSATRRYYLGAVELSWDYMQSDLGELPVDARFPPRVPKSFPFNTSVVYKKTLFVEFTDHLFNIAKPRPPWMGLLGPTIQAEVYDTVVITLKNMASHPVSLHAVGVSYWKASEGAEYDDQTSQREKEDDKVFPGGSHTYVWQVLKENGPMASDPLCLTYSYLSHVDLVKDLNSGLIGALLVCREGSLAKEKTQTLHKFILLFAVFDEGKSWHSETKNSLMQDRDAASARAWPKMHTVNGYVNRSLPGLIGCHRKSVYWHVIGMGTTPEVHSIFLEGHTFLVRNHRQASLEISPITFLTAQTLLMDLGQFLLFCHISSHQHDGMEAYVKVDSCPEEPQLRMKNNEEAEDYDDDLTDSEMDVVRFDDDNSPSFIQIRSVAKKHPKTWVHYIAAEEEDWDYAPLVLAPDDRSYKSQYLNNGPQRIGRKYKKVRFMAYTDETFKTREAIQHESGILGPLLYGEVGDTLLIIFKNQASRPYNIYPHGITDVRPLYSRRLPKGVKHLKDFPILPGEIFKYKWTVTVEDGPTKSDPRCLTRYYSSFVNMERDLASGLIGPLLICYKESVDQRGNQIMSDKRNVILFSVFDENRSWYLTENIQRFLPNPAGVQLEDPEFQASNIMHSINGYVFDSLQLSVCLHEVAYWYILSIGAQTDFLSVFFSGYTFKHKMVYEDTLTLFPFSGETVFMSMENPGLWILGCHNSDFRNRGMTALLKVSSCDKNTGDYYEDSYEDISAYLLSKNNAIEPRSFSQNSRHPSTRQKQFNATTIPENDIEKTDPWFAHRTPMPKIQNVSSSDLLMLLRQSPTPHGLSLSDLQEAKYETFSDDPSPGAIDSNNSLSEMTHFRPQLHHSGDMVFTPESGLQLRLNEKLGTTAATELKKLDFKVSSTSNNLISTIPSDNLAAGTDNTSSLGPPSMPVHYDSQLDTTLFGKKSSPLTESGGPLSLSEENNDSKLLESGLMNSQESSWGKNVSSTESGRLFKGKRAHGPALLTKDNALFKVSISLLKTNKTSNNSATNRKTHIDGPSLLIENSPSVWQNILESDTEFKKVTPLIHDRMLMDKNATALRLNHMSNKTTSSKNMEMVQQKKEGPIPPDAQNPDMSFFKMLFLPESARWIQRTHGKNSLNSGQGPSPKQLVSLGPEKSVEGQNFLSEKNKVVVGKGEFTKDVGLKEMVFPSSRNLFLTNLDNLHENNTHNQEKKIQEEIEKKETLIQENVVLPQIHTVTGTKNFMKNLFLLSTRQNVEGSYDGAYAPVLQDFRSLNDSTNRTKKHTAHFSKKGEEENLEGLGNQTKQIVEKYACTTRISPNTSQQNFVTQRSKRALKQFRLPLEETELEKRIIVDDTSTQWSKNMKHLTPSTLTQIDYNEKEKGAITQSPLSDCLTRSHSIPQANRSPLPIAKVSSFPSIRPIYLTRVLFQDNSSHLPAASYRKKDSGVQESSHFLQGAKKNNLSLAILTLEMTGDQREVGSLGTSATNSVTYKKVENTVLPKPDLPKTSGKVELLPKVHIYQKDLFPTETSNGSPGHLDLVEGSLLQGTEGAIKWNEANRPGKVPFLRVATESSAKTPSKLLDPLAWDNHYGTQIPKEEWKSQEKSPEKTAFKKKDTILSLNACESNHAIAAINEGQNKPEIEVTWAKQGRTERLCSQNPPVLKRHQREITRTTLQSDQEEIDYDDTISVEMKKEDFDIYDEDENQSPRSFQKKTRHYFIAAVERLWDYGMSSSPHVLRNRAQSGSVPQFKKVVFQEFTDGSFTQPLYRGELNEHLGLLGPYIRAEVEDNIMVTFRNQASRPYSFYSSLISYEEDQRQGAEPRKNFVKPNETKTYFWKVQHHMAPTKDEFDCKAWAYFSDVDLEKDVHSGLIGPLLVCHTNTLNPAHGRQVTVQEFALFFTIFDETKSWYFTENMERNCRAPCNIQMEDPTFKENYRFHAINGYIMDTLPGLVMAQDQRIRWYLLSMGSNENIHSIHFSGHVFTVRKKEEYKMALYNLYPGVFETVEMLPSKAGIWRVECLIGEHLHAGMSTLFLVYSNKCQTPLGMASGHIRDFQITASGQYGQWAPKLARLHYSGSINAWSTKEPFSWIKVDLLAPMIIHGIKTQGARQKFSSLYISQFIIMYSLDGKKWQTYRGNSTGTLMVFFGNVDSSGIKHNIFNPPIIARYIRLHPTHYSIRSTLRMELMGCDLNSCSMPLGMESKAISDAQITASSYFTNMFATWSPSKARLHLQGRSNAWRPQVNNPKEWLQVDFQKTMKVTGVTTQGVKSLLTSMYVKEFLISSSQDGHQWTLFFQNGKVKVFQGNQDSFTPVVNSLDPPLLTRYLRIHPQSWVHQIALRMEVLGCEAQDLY
UniProt P00742, whole entry, looked up: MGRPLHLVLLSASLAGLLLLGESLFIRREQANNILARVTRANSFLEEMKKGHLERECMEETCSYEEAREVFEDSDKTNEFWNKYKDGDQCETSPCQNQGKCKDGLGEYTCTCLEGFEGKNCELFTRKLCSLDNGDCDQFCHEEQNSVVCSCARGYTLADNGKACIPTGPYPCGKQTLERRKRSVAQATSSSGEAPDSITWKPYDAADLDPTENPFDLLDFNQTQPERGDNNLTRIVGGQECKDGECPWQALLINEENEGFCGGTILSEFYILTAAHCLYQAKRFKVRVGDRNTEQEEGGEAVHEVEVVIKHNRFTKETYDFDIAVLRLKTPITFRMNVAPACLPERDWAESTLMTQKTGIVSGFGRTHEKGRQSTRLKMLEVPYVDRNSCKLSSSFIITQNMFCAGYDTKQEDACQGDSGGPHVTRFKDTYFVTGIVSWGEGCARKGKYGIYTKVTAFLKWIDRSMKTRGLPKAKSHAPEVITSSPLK

Experiments:
[1] = target: FVIIIa (activated factor VIII) (UniProt P00451)
FX (factor X) = FX (factor X) (UniProt P00742)

Question: Which “maximum rate of FX cleavage, fold against wt-FIXa” value [1] does the source give for “R338A-FIXa (activated Factor IX with alanine at position 338)” here?
Answer: Its value is 2.7 fold greater for activated R338A-FIX than for wt-FIXa.

Question: What about the Kcat, with FVIIIa 0.1 nM (FIXa-FVIIIa complex) (FX (factor X)) of the same substance?
Answer: Its Kcat, with FVIIIa 0.1 nM (FIXa-FVIIIa complex) is 1.33 s⁻¹.

Question: What about the Kcat, with FVIIIa 0.4 nM (FIXa-FVIIIa complex) (FX (factor X)) of the same substance?
Answer: Its Kcat, with FVIIIa 0.4 nM (FIXa-FVIIIa complex) is 1.13 s⁻¹.

Question: And the Kcat, without FVIIIa (FX (factor X))?
Answer: The Kcat, without FVIIIa was 0.0016 s⁻¹.

Question: What about the Kcat/Km, with FVIIIa 0.1 nM (FIXa-FVIIIa complex) (FX (factor X)) of the same substance?
Answer: Its Kcat/Km, with FVIIIa 0.1 nM (FIXa-FVIIIa complex) is 1.72e+08 M⁻¹ s⁻¹.

Question: What about the Kcat/Km, with FVIIIa 0.4 nM (FIXa-FVIIIa complex) (FX (factor X)) of the same substance?
Answer: The Kcat/Km, with FVIIIa 0.4 nM (FIXa-FVIIIa complex) was 9.24e+07 M⁻¹ s⁻¹.

Question: What about the Kcat/Km, without FVIIIa (FX (factor X)) of the same substance?
Answer: The Kcat/Km, without FVIIIa was 29900 M⁻¹ s⁻¹.

Question: And the Km, with FVIIIa 0.1 nM (FIXa-FVIIIa complex) (FX (factor X))?
Answer: Its Km, with FVIIIa 0.1 nM (FIXa-FVIIIa complex) is 0.00772 µM.

Question: What about the Km, with FVIIIa 0.4 nM (FIXa-FVIIIa complex) (FX (factor X)) of the same substance?
Answer: The Km, with FVIIIa 0.4 nM (FIXa-FVIIIa complex) was 0.0122 µM.

Question: What about the Km, without FVIIIa (FX (factor X)) of the same substance?
Answer: Its Km, without FVIIIa is 0.0535 µM.

Question: What about the Vmax, with FVIIIa 0.1 nM (FIXa-FVIIIa complex) (nM FXa min^-1) (FX (factor X)) of the same substance?
Answer: The Vmax, with FVIIIa 0.1 nM (FIXa-FVIIIa complex) (nM FXa min^-1) was 2.47.

Question: And the Vmax, with FVIIIa 0.4 nM (FIXa-FVIIIa complex) (nM FXa min^-1) (FX (factor X))?
Answer: The Vmax, with FVIIIa 0.4 nM (FIXa-FVIIIa complex) (nM FXa min^-1) was 5.42.

Question: And the Vmax, without FVIIIa (nM FXa min^-1) (FX (factor X))?
Answer: The Vmax, without FVIIIa (nM FXa min^-1) was 2.58.
